From ChEMBL document CHEMBL1145271 (Bioorg Med Chem Lett, 2005) come the findings set out here.

Sequences of proteins named here, by UniProt entry; tags and fusion partners are left off. A change or cut given only in a name is not applied to a line headed by its entry.
UniProt P41145: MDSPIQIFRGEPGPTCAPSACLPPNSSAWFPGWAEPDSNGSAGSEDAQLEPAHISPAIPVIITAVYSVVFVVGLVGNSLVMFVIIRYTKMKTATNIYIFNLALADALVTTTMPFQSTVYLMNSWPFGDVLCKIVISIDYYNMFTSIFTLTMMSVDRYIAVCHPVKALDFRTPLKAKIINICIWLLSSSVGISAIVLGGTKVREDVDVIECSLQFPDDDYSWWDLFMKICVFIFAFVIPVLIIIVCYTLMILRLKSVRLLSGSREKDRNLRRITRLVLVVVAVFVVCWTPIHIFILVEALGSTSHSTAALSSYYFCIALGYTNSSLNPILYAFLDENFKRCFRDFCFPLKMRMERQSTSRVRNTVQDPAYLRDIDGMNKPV

The target in this assay is Kappa-type opioid receptor (Homo sapiens, UniProt P41145). The assay is described as follows: Activation of human Opioid receptor kappa 1 expressed in chinese hamster ovary cells to enhance [35S]GTP-gamma-S, binding compared to U50,488H. It counts as functional, cell-based. Summed up: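 Agonist efficacy at human κ-opioid receptor, read as enhancement of [35S]GTPγS binding and expressed as % of the maximal response to U50,488H. Mean of at least three independent experiments, each run in duplicate.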

Regarding `CN(C(=O)Cc1ccc(Cl)c(Cl)c1)C1CCCCC1N1CCCC1` (stereo unspecified), the Efficacy came out at 100%.
